Patent US8168651B2, “Protein kinase modulators” (Cylene Pharmaceuticals, Inc., priority 2008, dated 2012)

Chains of the proteins cited; added tags and fusions are not shown.
UniProt P68400, whole entry: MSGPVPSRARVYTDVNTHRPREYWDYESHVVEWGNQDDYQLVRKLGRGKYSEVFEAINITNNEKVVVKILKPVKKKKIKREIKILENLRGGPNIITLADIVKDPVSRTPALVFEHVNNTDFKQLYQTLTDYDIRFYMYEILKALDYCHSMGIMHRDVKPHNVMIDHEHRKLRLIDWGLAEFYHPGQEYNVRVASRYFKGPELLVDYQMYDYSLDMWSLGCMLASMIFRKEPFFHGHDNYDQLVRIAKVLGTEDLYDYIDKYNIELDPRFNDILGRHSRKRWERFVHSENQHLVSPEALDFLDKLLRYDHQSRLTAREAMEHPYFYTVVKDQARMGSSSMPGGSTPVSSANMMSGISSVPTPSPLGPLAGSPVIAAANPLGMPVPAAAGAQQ

Target: recombinant human CK2 (Homo sapiens (Human), UniProt P68400)
Test: CK2 assay (cell-free, 33P-ATP filter plate)
[1] = read-out: CK2: IC50 (uM) (15 uM ATP), 15 uM ATP
[2] = read-out: CK2 (15 um ATP) IC50, 15 um ATP, cell-free assay

Row | IC50 [1] [µM] | IC50 [2] [µM] | SMILES | other results
1 | – | – | COC(=O)c1ccc2c(c1)nc(Cl)c1ccsc12 [drawing 572] | IC50 (read-out: CK2 IC50): > 10 µM
2 | > 0.75 | – | NC(=O)c1ccc2c(c1)nc(Nc1cccc(C(F)(F)F)c1)c1nc(NC3CC3)ncc12 [drawing 796] | –
3 | > 0.75 | – | COC(=O)c1ccc2c(c1)nc(NC1CC1)c1nc(SCc3ccccc3Cl)ncc12 [drawing 775] | –
4 | – | > 0.75 | O=C(O)c1ccc2c(c1)nc(NC1CC1)c1nc(SCc3ccccc3Cl)ncc12 [drawing 1614] | –
5 | – | – | Clc1nc2ccccc2c2sccc12 [drawing 586] | IC50 (read-out: CK2 IC50): > 5 µM
6 | – | > 0.75 | CNC(=O)c1ccc2c(c1)nc(Nc1cccc(C(F)(F)F)c1)c1nc(NC3CC3)ncc12 [drawing 1634] | –
7 | > 0.75 | – | CCOc1ncc2c(n1)c(Nc1cccc(C(F)(F)F)c1)nc1cc(C(=O)O)ccc12 [drawing 755] | –
8 | > 0.75 | – | COC(=O)c1ccc2c(c1)nc(Nc1cccc(Cl)c1)c1nc(NCCC(N)=O)ncc12 [drawing 774] | –
9 | – | > 0.75 | CC(=O)Nc1ccc2c(c1)nc(Nc1cccc(C(F)(F)F)c1)c1nc(NC3CC3)ncc12 [drawing 1649] | –
10 | > 0.75 | – | O=C(O)c1ccc2c(c1)nc(N1CCOCC1)c1nc(NC3CC3)ncc12 [drawing 791] | –
11 | > 0.75 | – | COC(=O)c1ccc2c(c1)nc(NC1CC1)c1nc(SC)ncc12 [drawing 805] | –
12 | > 0.75 | – | CC(=O)Nc1ccc2c(c1)nc(Nc1cccc(C(F)(F)F)c1)c1nc(NC3CC3)ncc12 [drawing 812] | –
13 | > 0.5 | – | CNc1ncc2c(n1)c(Nc1ccccc1)nc1cc(C(=O)OC)ccc12 [drawing 734] | –
14 | > 0.75 | – | CNC(=O)c1ccc2c(c1)nc(Nc1cccc(C(F)(F)F)c1)c1nc(NC3CC3)ncc12 [drawing 798] | –
15 | > 0.5 | – | COC(=O)c1ccc2c(c1)nc(Nc1ccccc1)c1nc(SC)ncc12 [drawing 732] | –
16 | – | – | O=C(NCCCO)c1ccc2c(c1)nc(NCCCO)c1ccsc12 [drawing 573] | IC50 (read-out: CK2 IC50): > 10 µM
17 | > 0.75 | – | O=C(NC1CC1)c1ccc2c(c1)nc(Nc1cccc(C(F)(F)F)c1)c1nc(NC3CC3)ncc12 [drawing 797] | –
18 | – | > 0.75 | COC(=O)c1ccc2c(c1)nc(NC1CC1)c1nc(SCc3ccccc3Cl)ncc12 [drawing 1611] | –

Row | IC50 [1] [µM] | IC50 [2] [µM] | SMILES | other results
19 | – | > 0.75 | CN(C)c1ncc2c(n1)c(Nc1cccc(Cl)c1)nc1cc(C(=O)O)ccc12 [drawing 1593] | –
20 | – | > 0.75 | O=C(O)c1ccc2c(c1)nc(Nc1cncc(C3CC3)c1)c1ccncc12 [drawing 1619] | –
21 | – | > 0.75 | COC(=O)c1ccc2c(c1)nc(Nc1cccc(Cl)c1)c1nc(NCCC(N)=O)ncc12 [drawing 1610] | –
22 | > 0.75 | – | CN(C)c1ncc2c(n1)c(NC1CC1)nc1cc(C(=O)O)ccc12 [drawing 810] | –
23 | > 0.75 | – | CN(C)CCNc1nc2cc(C(=O)O)ccc2c2cnc(NC3CC3)nc12 [drawing 806] | –
24 | > 0.75 | – | CN(C)c1ncc2c(n1)c(Nc1cccc(Cl)c1)nc1cc(C(=O)O)ccc12 [drawing 757] | –
25 | > 0.5 | – | COC(=O)c1ccc2c(c1)nc(Nc1ccccc1)c1nc(S(C)(=O)=O)ncc12 [drawing 733] | –
26 | > 0.75 | – | CC(C)OC(=O)Nc1ccc2c(c1)nc(Nc1cccc(C(F)(F)F)c1)c1nc(NC3CC3)ncc12 [drawing 804] | –
27 | – | > 0.75 | CCOc1ncc2c(n1)c(Nc1cccc(C(F)(F)F)c1)nc1cc(C(=O)O)ccc12 [drawing 1591] | –
28 | – | > 0.75 | C#Cc1cccc(Nc2nc3cc(C(=O)OC)ccc3c3cnc(NOC)nc23)c1 [drawing 1609] | –
29 | – | > 0.75 | CC(C)OC(=O)Nc1ccc2c(c1)nc(Nc1cccc(C(F)(F)F)c1)c1nc(NC3CC3)ncc12 [drawing 1640] | –
30 | – | > 0.75 | COC(=O)c1ccc2c(c1)nc(NC1CC1)c1nc(SC)ncc12 [drawing 1641] | –
31 | – | > 0.75 | CN(C)c1ncc2c(n1)c(NC1CC1)nc1cc(C(=O)O)ccc12 [drawing 1647] | –
32 | – | > 0.75 | NC(=O)c1ccc2c(c1)nc(Nc1cccc(C(F)(F)F)c1)c1nc(NC3CC3)ncc12 [drawing 1632] | –
33 | – | > 0.75 | O=C(NC1CC1)c1ccc2c(c1)nc(Nc1cccc(C(F)(F)F)c1)c1nc(NC3CC3)ncc12 [drawing 1633] | –
34 | > 0.5 | – | COC(=O)c1ccc2c(c1)nc(Nc1cccc(Cl)c1)c1ccncc12 [drawing 731] | –
35 | > 0.75 | – | C#Cc1cccc(Nc2nc3cc(C(=O)OC)ccc3c3cnc(NOC)nc23)c1 [drawing 773] | –
36 | – | > 0.75 | CN(C)CCNc1nc2cc(C(=O)O)ccc2c2cnc(NC3CC3)nc12 [drawing 1642] | –

Where two headings read alike, the source gives them in different places.
